Test system: GBM39/Luc cells
Experiment: Drug sensitivity / synergy with TTFields
Assay type: cell-based, human

Compound: O=NN(CCCl)C(=O)NC1CCCCC1 [Lomustine]
- synergy of TTFields plus drug: synergy was found
